Assay results published in patent publication US8637553B2, “Fluoro substituted omega-carboxyaryl diphenyl urea for the treatment and prevention of diseases and conditions” (Bayer Healthcare LLC, priority 2003, dated 2014).

Sequences of proteins named here, by UniProt entry; tags and fusion partners are left off. Residues count along the entry.
UniProt P05622, 32-1098: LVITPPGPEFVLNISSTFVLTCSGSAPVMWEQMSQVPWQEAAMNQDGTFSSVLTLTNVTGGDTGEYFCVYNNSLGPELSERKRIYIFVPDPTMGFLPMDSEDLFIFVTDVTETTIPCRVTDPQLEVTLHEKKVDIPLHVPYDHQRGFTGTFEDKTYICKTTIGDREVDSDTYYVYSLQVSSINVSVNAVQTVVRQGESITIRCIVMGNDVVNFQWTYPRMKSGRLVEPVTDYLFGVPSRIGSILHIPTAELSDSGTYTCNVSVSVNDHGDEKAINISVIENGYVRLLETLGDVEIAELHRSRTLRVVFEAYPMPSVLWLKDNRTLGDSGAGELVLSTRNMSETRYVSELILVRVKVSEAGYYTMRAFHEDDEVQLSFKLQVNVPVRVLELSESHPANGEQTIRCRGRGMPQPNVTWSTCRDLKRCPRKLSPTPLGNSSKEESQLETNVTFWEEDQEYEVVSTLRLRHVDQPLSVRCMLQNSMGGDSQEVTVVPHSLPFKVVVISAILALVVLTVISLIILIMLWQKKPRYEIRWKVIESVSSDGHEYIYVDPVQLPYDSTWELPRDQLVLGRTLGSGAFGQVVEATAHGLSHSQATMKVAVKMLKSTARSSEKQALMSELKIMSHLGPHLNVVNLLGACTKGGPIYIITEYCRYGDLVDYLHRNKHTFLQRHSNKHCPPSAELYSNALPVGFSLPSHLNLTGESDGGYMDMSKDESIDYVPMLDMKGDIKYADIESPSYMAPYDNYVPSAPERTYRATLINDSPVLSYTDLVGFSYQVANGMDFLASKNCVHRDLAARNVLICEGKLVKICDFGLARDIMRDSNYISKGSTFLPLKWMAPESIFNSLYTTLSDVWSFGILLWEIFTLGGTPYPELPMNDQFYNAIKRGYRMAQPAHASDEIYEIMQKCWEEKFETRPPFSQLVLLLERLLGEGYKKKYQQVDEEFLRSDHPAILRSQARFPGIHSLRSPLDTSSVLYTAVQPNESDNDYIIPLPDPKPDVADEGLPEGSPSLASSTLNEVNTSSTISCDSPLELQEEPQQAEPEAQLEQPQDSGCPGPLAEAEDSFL

Molecular target: mouse PDGFR (Mus musculus, UniProt P05622)
Assay: biochemical

## CNC(=O)c1cc(Oc2ccc(NC(=O)Nc3ccc(Cl)c(C(F)(F)F)c3)c(F)c2)ccn1 [Example 1, 4{4-[3-(4-chloro-3-trifluoromethylphenyl)-ureido]-3-fluorophenoxy}-pyridine-2-carboxylic acid methylamide]
  IC50: 83 nM
